Earlier results on one substance are cited in US9675579B2, “Tetrahydrocannabivarin for use in the treatment of nausea and vomiting” (GW Pharma Limited, priority 2013, dated 2017).

The data set deals with rodent. Conditions: 2.5 mg/kg, sub-threshold for nausea on its own, pre-treatment prior to saccharin-LiCl pairing, drug-free test 72 hours after conditioning; cited from earlier work.

For AM251, the “potentiation of the nausea produced by LiCl (potentiated gaping)” value was “potentiated the nausea produced by LiCl”.
